# scFv variants of Ab-14 (light chain) against a SARS-CoV-2 spike peptide

The measurements come from Engelhart et al. 2022 (doi:10.1038/s41597-022-01779-4) through the FLAb antibody collection.

Antigen: PDVDLGDISGINAS, a 14-residue peptide of the SARS-CoV-2 spike HR2 region.

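The parent was found by panning a naive human phage display library on the peptide. The library (AAYL50) carries one to three amino acid substitutions per variant, with no insertions or deletions. Affinity was read by AlphaSeq, a pooled yeast mating assay with surface-displayed partners. Mating (16 h, 30 °C) was followed by selection of diploids and sequencing of their barcodes. Scores were corrected for input abundance and mapped to Kd with protein pairs of known affinity run in the same pool. Each pool was mated in three replicate cultures.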

Each scFv is VH, the linker GGGGSGGGGSGGGGS, VL, as in the parent Ab-14, and differs from it in the CDRs of the light chain only.
VH: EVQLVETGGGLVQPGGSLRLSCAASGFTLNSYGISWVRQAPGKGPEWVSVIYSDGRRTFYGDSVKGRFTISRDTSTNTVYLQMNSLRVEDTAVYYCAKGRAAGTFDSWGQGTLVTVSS
VL: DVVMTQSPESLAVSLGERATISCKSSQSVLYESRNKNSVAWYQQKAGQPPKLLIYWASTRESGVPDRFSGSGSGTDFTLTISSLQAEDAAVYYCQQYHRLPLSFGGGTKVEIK

Positions count from residue 1 of the parent VL; Y31L puts L in place of Y. Affinities are written as log10 Kd with Kd in nM; a lower number is a better binder. A mean of the replicates is given; it leaves out those without a signal. An entry "ND" has no value in the source: the pair was not observed among the diploids in that replicate. This suggests poor binding but is not conclusive. In this assay the parent's reference entry averaged 0.65; its copy inside this library read 1.68.

changes | log10 Kd (nM) by replicate | mean, log10 nM | empty controls
Y31L+S33G+V39S | 6.15 ND ND | 6.15 | 1 of 9 (5.18)
S25V+S26F+S62V | 0.65 1.15 0.91 | 0.90 | 0 of 9
N35Y+N37A+V39P | ND ND 6.03 | 6.03 | 4 of 9 (5.06)
N37L+S58G+L100P | 4.58 3.72 ND | 4.15 | 2 of 9 (3.92)
S25P+R60Y+S62H | 3.73 ND ND | 3.73 | 0 of 9
Q96W+Y97D+S103Q | ND ND ND | ND | 3 of 9 (3.88)
K24D+S28Q+Q96R | ND 3.22 3.15 | 3.19 | 0 of 9
R34M+N35C+T59H | 3.16 ND 4.45 | 3.81 | 2 of 9 (3.96)
S26R+T59L+E61D | 3.09 ND ND | 3.09 | 1 of 9 (3.97)
S26K+V29A+A57C | 1.51 1.58 1.41 | 1.50 | 1 of 9 (3.51)
S25I+N37T+S58D | 0.48 0.72 0.56 | 0.59 | 0 of 9
V29T+P101N | ND ND ND | ND | 0 of 9
L30R+Q96A | ND 2.64 2.28 | 2.46 | 0 of 9
V29N | 1.31 1.38 1.45 | 1.38 | 1 of 9 (3.66)
S25W+T59W | 1.53 1.60 1.63 | 1.59 | 2 of 9 (4.63)
S25R+Y31H+R34I | 1.68 1.67 1.72 | 1.69 | 2 of 9 (4.72)
S58T+T59K+R60H | 3.40 3.54 3.03 | 3.32 | 1 of 9 (3.42)
Y31T+N35E+S62D | 0.25 0.46 0.52 | 0.41 | 0 of 9
S26Q+V29S+Y31N | 1.32 1.62 1.53 | 1.49 | 0 of 9
R99I+P101H | ND ND ND | ND | 0 of 9
Y31I+Q96E+L100M | 4.11 ND 2.97 | 3.54 | 1 of 9 (4.69)
L30N+E32K+S103K | ND ND ND | ND | 1 of 9 (4.37)
S26K+V29L+L100N | 0.95 0.99 0.81 | 0.92 | 2 of 9 (3.22)
S25C+S28P+Q96R | ND ND ND | ND | 0 of 9
V39I+S62K+S103A | 1.01 1.21 1.05 | 1.09 | 0 of 9
E32R+S33E+Q96H | 2.08 1.81 1.97 | 1.95 | 1 of 9 (4.24)
S25K+V29I+N37A | ND ND ND | ND | 2 of 9 (4.30)
N35D+K36V+N37E | 1.38 1.31 1.43 | 1.37 | 1 of 9 (3.72)
S38A+T59W | 1.10 1.40 1.37 | 1.29 | 0 of 9
V29I+L30P+N35D | 0.50 0.78 0.59 | 0.62 | 3 of 9 (4.49)
E32Y+Y97G+R99N | ND ND ND | ND | 0 of 9
L30K+N37S+S62M | 2.03 2.00 2.28 | 2.10 | 4 of 9 (4.87)
Q27E+E61M+P101M | ND ND ND | ND | 1 of 9 (3.25)
K36F+N37A+P101I | ND 3.66 5.55 | 4.61 | 0 of 9
S58T+R99P+L102R | 5.69 3.90 4.76 | 4.78 | 3 of 9 (3.54)
S33V+V39K+Q96W | ND 3.92 ND | 3.92 | 3 of 9 (4.15)
S33E+R99N+L102P | 3.29 ND ND | 3.29 | 0 of 9
N37V+S38F+A57Q | ND ND ND | ND | 0 of 9
S28G+A57V+H98K | ND ND ND | ND | 1 of 9 (2.56)

Picked from the list: the 6 lowest averages where every replicate gave a value.

changes | log10 Kd (nM) by replicate | mean, log10 nM | empty controls
Y31T+N35E+S62D | 0.25 0.46 0.52 | 0.41 | 0 of 9
S25I+N37T+S58D | 0.48 0.72 0.56 | 0.59 | 0 of 9
V29I+L30P+N35D | 0.50 0.78 0.59 | 0.62 | 3 of 9 (4.49)
S25V+S26F+S62V | 0.65 1.15 0.91 | 0.90 | 0 of 9
S26K+V29L+L100N | 0.95 0.99 0.81 | 0.92 | 2 of 9 (3.22)
V39I+S62K+S103A | 1.01 1.21 1.05 | 1.09 | 0 of 9

Nonspecific signal, from three strains lacking the peptide, appeared in 18% of pairings of library AAYL50, centred on 4.19 (5% of these signals below 2.99); values are not corrected for it. Also given: how often the same scFv was detected with the empty control strains, with their mean in brackets.